Test results as given in publication PMC10539361, “Allosteric modulation of the fish taste receptor type 1 (T1R) family by the extracellular chloride ion” (Scientific Reports, 2023).

Tests used:
zfT1R2a/zfT1R3 = biological target: T1, zfT1R2a/zfT1R3 (Danio rerio, UniProt A0A8M1N8F9+Q2MHK9); experiment: Ca2+ mobilization dose-response assay, stable cells expressing zfT1R2a/zfT1R3 with G16gust44; conditions: EC50, [Cl-]o=141.4 mM (high Cl- buffer); unit inferred
T1 sequence (A0A8M1N8F9 26-825): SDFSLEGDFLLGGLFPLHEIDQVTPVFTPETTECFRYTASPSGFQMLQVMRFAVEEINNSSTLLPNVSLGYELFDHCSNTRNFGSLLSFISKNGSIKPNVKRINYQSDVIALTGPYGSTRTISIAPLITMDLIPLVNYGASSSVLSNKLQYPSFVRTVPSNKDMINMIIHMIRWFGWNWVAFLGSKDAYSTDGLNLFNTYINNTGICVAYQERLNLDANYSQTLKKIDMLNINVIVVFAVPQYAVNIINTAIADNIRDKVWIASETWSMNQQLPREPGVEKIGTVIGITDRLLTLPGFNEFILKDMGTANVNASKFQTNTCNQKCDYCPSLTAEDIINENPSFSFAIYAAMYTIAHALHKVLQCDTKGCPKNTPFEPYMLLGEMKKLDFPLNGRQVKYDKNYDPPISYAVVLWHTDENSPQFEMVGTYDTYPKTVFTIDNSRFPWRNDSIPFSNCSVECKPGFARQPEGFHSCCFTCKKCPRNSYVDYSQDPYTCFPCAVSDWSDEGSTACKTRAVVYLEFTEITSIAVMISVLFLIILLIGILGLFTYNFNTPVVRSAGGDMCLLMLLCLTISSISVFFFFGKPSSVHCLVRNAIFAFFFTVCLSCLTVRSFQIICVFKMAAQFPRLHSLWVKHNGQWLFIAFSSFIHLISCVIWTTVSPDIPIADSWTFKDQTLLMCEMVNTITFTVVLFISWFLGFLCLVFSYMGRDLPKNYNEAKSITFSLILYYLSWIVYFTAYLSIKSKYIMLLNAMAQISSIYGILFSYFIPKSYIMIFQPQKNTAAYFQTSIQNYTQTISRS
T1 sequence (Q2MHK9 25-850): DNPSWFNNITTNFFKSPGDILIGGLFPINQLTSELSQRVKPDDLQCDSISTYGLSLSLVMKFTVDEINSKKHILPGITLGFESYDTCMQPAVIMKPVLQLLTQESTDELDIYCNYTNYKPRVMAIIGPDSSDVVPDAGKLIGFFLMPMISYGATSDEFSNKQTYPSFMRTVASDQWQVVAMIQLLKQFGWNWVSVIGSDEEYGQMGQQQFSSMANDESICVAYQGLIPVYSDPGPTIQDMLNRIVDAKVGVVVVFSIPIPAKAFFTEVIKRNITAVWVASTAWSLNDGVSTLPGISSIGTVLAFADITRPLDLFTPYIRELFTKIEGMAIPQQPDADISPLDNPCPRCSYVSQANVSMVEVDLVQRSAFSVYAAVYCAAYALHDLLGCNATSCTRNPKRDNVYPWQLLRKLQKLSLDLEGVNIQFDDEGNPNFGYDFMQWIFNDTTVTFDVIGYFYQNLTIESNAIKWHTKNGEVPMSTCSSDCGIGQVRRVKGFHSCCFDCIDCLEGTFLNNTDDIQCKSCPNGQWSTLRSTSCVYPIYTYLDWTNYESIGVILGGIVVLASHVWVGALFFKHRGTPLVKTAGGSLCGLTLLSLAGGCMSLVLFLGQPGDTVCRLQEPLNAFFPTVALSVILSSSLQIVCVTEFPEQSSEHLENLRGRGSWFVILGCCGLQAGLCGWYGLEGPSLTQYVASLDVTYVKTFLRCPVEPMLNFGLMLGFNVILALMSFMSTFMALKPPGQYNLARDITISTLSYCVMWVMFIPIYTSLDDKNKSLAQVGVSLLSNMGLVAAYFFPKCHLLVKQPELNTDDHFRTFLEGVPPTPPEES

mfT1R2a/mfT1R3 = biological target: T2, mfT1R2a/mfT1R3 (Oryzias latipes, UniProt Q2MHK2+Q2MHK5); experiment: Ca2+ mobilization dose-response assay, stable cells expressing mfT1R2a/mfT1R3 with G16gust44; conditions: EC50, [Cl-]o=141.4 mM (high Cl- buffer); unit inferred
T2 sequence (Q2MHK5 20-819): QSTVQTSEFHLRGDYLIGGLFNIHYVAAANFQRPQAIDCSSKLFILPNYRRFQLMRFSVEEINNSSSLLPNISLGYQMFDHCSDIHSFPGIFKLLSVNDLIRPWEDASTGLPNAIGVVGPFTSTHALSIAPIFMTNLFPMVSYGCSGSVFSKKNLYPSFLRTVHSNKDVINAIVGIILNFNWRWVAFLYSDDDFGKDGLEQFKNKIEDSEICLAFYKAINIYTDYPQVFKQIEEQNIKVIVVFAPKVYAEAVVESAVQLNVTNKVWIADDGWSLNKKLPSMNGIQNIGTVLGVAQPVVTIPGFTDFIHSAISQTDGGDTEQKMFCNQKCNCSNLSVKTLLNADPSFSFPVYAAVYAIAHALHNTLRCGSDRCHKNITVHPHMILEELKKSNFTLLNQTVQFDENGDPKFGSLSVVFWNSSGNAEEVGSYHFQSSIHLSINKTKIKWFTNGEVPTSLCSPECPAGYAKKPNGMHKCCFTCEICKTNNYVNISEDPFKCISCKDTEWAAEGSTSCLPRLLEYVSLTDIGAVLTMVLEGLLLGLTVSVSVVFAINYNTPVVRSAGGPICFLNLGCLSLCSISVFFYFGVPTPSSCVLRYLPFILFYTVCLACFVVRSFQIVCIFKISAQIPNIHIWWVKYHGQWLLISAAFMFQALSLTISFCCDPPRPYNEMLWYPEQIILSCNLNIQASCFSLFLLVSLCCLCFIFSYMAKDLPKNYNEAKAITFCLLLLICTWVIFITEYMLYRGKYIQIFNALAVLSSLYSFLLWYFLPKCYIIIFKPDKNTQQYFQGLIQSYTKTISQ
T2 sequence (Q2MHK2 20-853): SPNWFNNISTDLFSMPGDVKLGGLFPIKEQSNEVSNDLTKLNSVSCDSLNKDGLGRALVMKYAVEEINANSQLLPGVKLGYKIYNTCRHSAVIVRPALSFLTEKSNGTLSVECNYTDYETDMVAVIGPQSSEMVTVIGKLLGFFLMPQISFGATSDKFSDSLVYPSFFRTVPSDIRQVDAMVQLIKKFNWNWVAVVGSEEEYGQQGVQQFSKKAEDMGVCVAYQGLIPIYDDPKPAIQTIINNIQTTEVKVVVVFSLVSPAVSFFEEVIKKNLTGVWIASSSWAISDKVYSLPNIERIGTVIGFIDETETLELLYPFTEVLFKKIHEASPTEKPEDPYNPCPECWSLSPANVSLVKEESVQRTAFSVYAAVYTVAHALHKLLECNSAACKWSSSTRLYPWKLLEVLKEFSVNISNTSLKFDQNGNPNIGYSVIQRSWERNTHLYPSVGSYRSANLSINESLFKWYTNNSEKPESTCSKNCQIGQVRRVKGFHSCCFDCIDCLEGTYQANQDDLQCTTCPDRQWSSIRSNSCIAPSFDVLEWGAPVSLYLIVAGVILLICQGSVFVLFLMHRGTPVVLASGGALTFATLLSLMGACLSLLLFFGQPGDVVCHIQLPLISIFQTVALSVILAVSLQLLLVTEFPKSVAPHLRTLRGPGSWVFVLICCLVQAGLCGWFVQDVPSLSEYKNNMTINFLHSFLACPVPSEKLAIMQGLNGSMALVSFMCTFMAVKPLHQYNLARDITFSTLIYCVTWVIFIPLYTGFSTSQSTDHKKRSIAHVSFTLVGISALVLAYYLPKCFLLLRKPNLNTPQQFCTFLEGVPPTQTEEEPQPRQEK

hT1R2/hT1R3 = biological target: T3, hT1R2/hT1R3 (Homo sapiens, UniProt Q7RTX0+Q8TE23); experiment: Ca2+ mobilization dose-response assay, stable cells expressing hT1R2/hT1R3 with G16gust44; type: cell-based; conditions: [Cl-]o=141.4 mM (high Cl- buffer); unit inferred
T3 construct: expressed in transfected cells
T3 sequence (Q8TE23 20-839): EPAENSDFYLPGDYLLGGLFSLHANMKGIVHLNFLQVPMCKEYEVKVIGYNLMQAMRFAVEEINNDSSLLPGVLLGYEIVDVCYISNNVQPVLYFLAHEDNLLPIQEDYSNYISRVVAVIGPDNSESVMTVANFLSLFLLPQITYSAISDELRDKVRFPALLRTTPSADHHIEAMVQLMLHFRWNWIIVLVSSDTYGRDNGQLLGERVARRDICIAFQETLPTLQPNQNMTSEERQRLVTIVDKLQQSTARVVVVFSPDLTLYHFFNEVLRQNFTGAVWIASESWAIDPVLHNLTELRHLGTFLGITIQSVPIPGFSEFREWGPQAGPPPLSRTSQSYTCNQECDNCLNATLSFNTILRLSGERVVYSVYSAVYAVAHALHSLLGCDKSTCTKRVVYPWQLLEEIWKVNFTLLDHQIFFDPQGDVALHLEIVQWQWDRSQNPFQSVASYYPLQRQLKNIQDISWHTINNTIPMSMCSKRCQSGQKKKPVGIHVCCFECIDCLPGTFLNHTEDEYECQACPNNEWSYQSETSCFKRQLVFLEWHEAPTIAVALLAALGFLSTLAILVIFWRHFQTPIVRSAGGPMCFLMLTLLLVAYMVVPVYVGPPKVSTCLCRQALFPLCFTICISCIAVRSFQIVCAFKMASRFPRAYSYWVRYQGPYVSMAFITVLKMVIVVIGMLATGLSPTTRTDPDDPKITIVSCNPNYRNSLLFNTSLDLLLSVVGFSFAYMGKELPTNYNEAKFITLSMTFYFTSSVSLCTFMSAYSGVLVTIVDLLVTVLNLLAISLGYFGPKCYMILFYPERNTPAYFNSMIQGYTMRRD
T3 sequence (Q7RTX0 21-852): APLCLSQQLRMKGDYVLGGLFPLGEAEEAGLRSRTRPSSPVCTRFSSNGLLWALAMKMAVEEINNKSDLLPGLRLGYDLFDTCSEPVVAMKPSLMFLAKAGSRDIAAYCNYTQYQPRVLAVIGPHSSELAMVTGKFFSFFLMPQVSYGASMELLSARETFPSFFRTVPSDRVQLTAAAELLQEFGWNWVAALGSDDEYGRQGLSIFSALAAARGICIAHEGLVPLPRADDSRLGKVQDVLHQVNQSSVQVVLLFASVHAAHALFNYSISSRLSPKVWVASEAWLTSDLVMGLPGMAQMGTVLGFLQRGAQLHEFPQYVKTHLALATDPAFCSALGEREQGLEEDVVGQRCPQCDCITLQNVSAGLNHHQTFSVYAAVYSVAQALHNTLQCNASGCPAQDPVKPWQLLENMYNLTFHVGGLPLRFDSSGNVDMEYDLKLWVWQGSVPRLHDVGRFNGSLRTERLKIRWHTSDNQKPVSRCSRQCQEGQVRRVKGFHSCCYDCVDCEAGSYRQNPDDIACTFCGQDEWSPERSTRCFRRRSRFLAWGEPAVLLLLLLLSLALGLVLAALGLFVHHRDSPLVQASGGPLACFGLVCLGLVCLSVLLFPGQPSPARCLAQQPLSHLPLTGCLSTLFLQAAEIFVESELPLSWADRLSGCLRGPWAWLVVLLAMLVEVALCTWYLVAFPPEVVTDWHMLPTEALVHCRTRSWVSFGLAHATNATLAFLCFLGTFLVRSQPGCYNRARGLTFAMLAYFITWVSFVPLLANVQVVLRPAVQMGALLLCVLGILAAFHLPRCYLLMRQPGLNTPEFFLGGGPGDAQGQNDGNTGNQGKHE

hT1R2/hT1R3 T102E = biological target: T4, hT1R2/hT1R3 T102E (Homo sapiens, UniProt Q7RTX0+Q8TE23, T102E); experiment: Ca2+ mobilization dose-response assay, site X mutant hT1R2/hT1R3 T102E; conditions: EC50, [Cl-]o=141.4 mM (high Cl- buffer); unit inferred
T4 sequence (Q8TE23 20-839): T3 sequence (Q8TE23 20-839)
T4 sequence (Q7RTX0 21-852 T102E): T3 sequence (Q7RTX0 21-852) with T82E

SMILES: C[C@H](N)C(=O)O [L-Ala, L-alanine]
- EC50 (zfT1R2a/zfT1R3): 137 µM

SMILES: NC(=O)CC[C@H](N)C(=O)O [L-Gln, L-glutamine]
- EC50 (mfT1R2a/mfT1R3): 62.5 µM

- EC50 (hT1R2/hT1R3): 77.6 µM
- EC50 (hT1R2/hT1R3 T102E): 224 µM
SMILES: OC[C@H]1O[C@H](O[C@]2(CCl)O[C@H](CCl)[C@@H](O)[C@@H]2O)[C@H](O)[C@@H](O)[C@H]1Cl [sucralose, Sucralose]

Residue numbers refer to the chain shown, from its start. One block for each molecule: values may come before it.
